Assay results as given in the OPERA property sets (Mansouri et al. 2018).

Conditions: experimental values, compiled

Which melting point does the source give for `CC(C)NP(=O)(F)NC(C)C` here?
The melting point was 65 °C.

Which boiling point does the source give for `COC(=O)CF` here?
Its boiling point is 104 °C.

What about the melting point of the same compound?
The melting point was -35 °C.

With `SCCCl` as the compound, how does the boiling point read?
The boiling point was 113 °C.

For `CC(C)N1CCC(N(C(=O)Cc2ccccc2)c2ccc(Cl)cc2)CC1`, which melting point is on record?
Its melting point is 263 °C.

For `CCOP(OCC)OCC`, which boiling point is on record?
Its boiling point is 158 °C.

What does the source list for `CCOP(O)OCC`?
boiling point: 138 °C; log10 vapour pressure (mmHg): 1.05

Which melting point does the source give for `CCC(=O)n1c(=O)n(C2CCN(CCC(C#N)(c3ccccc3)c3ccccc3)CC2)c2ccccc21` here?
Its melting point is 147 °C.

Which boiling point does the source give for `COP(OC)OC` here?
The boiling point was 112 °C.

Which boiling point does the source give for `CCOP(=O)(Cl)OCC` here?
The boiling point was 93.5 °C.

With `O=C(F)F` as the compound, how does the boiling point read?
The boiling point was -84.5 °C.

What about the log10 vapour pressure (mmHg) of the same compound?
Its log10 vapour pressure (mmHg) is 4.65.

And the melting point?
The melting point was -111 °C.

With `CCOP(Cl)OCC` as the compound, how does the boiling point read?
The boiling point was 153 °C.

Which boiling point does the source give for `O=C(Cl)OCCl` here?
Its boiling point is 107 °C.

Same assay, conditions: fish

With `CCOP(=S)(Oc1ccc([N+](=O)[O-])cc1)c1ccccc1` (configuration not stated) as the compound, how does the log10 biotransformation half-life (days) read?
The log10 biotransformation half-life (days) was 0.02.
